Data from US20170275350A1 (Scripps Research, published 2017).

Target: Protease activated receptor-1 (PAR1), endogenous on EA.hy.926 endothelial cells (human) (UniProt P25116)
Assay: cell-based or functional assay

Thrombin (from UniProt P00734 328-622) (enzyme)
ERK1/2 phosphorylation in EA.hy.926 cells (immunoblot, ratio to total ERK1/2): 3 fold
